Results on 2 molecules are retold here after the NIST ThermoML archive (doi:10.1021/je0504212).

± gives the expanded uncertainty stated by the source.

For orientation: mass density means the mass of a sample divided by its volume.

For this data set the following is noted: 308.5 K; 101.33 kPa; Liquid.

On to `OCCOCCOCCOCCO` [tetraethylene glycol], for which the mass density is on record as 1112.32 ± 0.64 kg/m3.

Regarding `CCCCOCCCC` [dibutyl ether], the mass density came out at 755.22 ± 0.64 kg/m3.
